EC50 of activation of HOIL-1 helix-RBR catalysed UbcH7-Ub discharge, di-Ub 0–40 µM and EC50 of activation of HOIP chain formation and transthiolation (HOIP-Ub thioester formation) data for two substances are collected here from article PMC9834252.

Assay [1] addresses HOIL-1 helix-RBR (WT) (human) (UniProt Q9BYM8).
Assay [2] concerns the target HOIP RBR (amino acids 696–1072) (human) (UniProt Q96EP0).

In assay [1], “K63 linked di-Ub (from UniProt P0CG48 1-76) (complex)” gave an EC50 of activation of HOIL-1 helix-RBR catalysed UbcH7-Ub discharge, di-Ub 0–40 µM of 18 µM.
For the substance “blocked M1-linked di-Ub (GPG-di-UbΔC-term Gly) (from UniProt P0CG48 1-76; P0CG48 1-76)”, the EC50 of activation of HOIP chain formation and transthiolation (HOIP-Ub thioester formation) in assay [2] stood at 19.9 µM.
